## AlphaSeq binding of Ab-14 heavy chain variants to a spike HR2 peptide

Values reported by Engelhart et al. 2022, doi:10.1038/s41597-022-01779-4 (FLAb copy).

Binding partner: SARS-CoV-2 spike HR2 peptide, sequence PDVDLGDISGINAS.

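The starting antibody came from a phage panning campaign against this peptide. In library AAYL49, one, two or three CDR residues were substituted; doubles and triples were drawn at random. In AlphaSeq, yeast of one mating type display the scFv and yeast of the other type display the target. After mating in shaken culture at 30 °C for 16 h, diploids were selected and their barcode pairs sequenced. Each replicate has its own calibration line, from reference interactions of the BCL2 family. Mating was done three times.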

Parent scFv Ab-14: VH joined to VL by a 15-residue (Gly4Ser)3 linker. Changes lie in the heavy chain CDRs alone.
VH: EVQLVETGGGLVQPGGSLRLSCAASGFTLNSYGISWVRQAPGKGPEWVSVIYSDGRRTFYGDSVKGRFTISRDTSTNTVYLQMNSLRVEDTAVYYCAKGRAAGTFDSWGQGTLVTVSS
VL: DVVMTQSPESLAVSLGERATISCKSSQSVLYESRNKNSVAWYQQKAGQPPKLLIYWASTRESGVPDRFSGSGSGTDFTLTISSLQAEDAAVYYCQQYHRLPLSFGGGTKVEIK

Changes read parent residue, position, new residue, counted from the first residue of the VH shown. Affinities are written as log10 Kd with Kd in nM; a lower number is a better binder. The mean shown is taken over the replicates in which the pair was detected. "not detected" marks a missing value. The strain was present, yet no cells mated with the target were sequenced in any replicate, which points to weak or no binding. Parent in this assay: reference entry 0.65, copy in this library 4.11 (one replicate of three). As a blank, each scFv also met three strains without target: over library AAYL49, 15% of these pairings were detected, typically at 4.06 and seldom below 2.83. For each scFv, signals with the empty controls are counted beside the result.

changes | log10 Kd (nM), mean | detected | empty controls
I51L D106Q S107R | 3.75 | 1 of 3 | 4 of 9
S31Y A102S G103I | 3.75 | 2 of 3 | 0 of 9
F27L Y32A R57N | 4.89 | 2 of 3 | 1 of 9
T28P I51P G55F | 5.04 | 1 of 3 | 2 of 9
F27H I51R G55R | not detected | 0 of 3 | 1 of 9
L29V A102P G103N | 3.70 | 1 of 3 | 2 of 9
S31M I34R G61Y | not detected | 0 of 3 | 0 of 9
S31E Y32M D62Q | 1.28 | 2 of 3 | 0 of 9
I34C R57Y G103Y | 5.37 | 2 of 3 | 3 of 9
Y32E V64K | not detected | 0 of 3 | 0 of 9
Y32E R56L | 4.72 | 2 of 3 | 2 of 9
D54F F59C D62K | not detected | 0 of 3 | 1 of 9
I51C R57V T104F | not detected | 0 of 3 | 0 of 9
I34V S35L S53T | 3.02 | 1 of 3 | 1 of 9
G26E S53Q A101G | 2.65 | 3 of 3 | 4 of 9
N30K G33K T104F | 4.94 | 1 of 3 | 2 of 9
I51M D62W V64M | 4.71 | 1 of 3 | 1 of 9
I34C D62I T104V | not detected | 0 of 3 | 1 of 9
F27N R56Y A102Y | not detected | 0 of 3 | 0 of 9
G26Q V50K S63G | not detected | 0 of 3 | 0 of 9
G99E A102R | 0.38 | 3 of 3 | 1 of 9
Y32T S53G D62H | 4.65 | 2 of 3 | 4 of 9
S63M V64M K65Q | not detected | 0 of 3 | 0 of 9
F59L G61H G103E | 3.90 | 1 of 3 | 1 of 9
S53W G99F R100N | not detected | 0 of 3 | 1 of 9
Y52H A102E | 2.70 | 1 of 3 | 0 of 9
G61M A102W S107Y | 1.50 | 3 of 3 | 0 of 9
V64L K65I A102H | 3.34 | 1 of 3 | 0 of 9
Y32T Y60W R100F | not detected | 0 of 3 | 1 of 9
S53T Y60Q D106R | 5.02 | 3 of 3 | 6 of 9
Y32E A102I G103Q | 5.20 | 1 of 3 | 1 of 9
T28I I34D G103P | 4.16 | 2 of 3 | 1 of 9
K65T F105H D106S | 1.75 | 3 of 3 | 0 of 9
T58A S63K R100F | 4.29 | 1 of 3 | 0 of 9
R56E R57D A102L | 4.67 | 3 of 3 | 7 of 9
N30V Y32T D106Y | 3.64 | 1 of 3 | 2 of 9
L29Q V50E K65G | not detected | 0 of 3 | 0 of 9
V50C S53F R56T | 3.90 | 1 of 3 | 2 of 9
V50F I51G R56P | not detected | 0 of 3 | 1 of 9
G26W F59R A102T | not detected | 0 of 3 | 1 of 9
T28G Y32G F105A | 4.24 | 1 of 3 | 2 of 9
T58V S63R R100D | 0.59 | 3 of 3 | 4 of 9
I34G S53D T58H | not detected | 0 of 3 | 1 of 9
F27G D54W G103H | not detected | 0 of 3 | 0 of 9
T58D R100D F105T | 4.31 | 1 of 3 | 0 of 9
S31W R56I R57Q | 3.61 | 1 of 3 | 3 of 9
G33F Y60V G99R | not detected | 0 of 3 | 1 of 9
Y32Q D54K G99V | 5.97 | 1 of 3 | 4 of 9
S35D V64N S107E | 3.94 | 1 of 3 | 1 of 9
G26V Y32T I51F | not detected | 0 of 3 | 2 of 9
L29P D62I | 3.43 | 2 of 3 | 0 of 9
S31R I51Y R57A | not detected | 0 of 3 | 0 of 9
F27D G55D K65M | 5.27 | 1 of 3 | 2 of 9
N30P G55R V64W | not detected | 0 of 3 | 0 of 9
S35K F59V F105H | 5.45 | 1 of 3 | 3 of 9
G26N V64H K65H | not detected | 0 of 3 | 0 of 9
L29I T58K | 0.98 | 3 of 3 | 1 of 9
G61D G99N F105I | 3.81 | 3 of 3 | 4 of 9
I34W I51V F59H | 3.25 | 1 of 3 | 4 of 9
G26W G33L D106R | not detected | 0 of 3 | 0 of 9
D54Q K65Y D106A | not detected | 0 of 3 | 0 of 9
T28W D62P G103P | 3.06 | 3 of 3 | 2 of 9
G26H Y32R T58E | not detected | 0 of 3 | 0 of 9
L29G G55N V64R | 4.72 | 2 of 3 | 2 of 9
S53W D54W T104K | not detected | 0 of 3 | 1 of 9
D62E K65D S107N | 1.48 | 3 of 3 | 0 of 9
V50L K65M D106S | 4.99 | 2 of 3 | 5 of 9
L29R N30H F59Y | 4.06 | 1 of 3 | 2 of 9
N30R Y32R R56Q | 1.13 | 3 of 3 | 1 of 9
I51T G99K A102H | not detected | 0 of 3 | 2 of 9
F27H T58I V64Q | not detected | 0 of 3 | 1 of 9
R56C S63H | 2.23 | 3 of 3 | 0 of 9
T28W S31N K65N | 2.66 | 3 of 3 | 0 of 9
T28I L29N D62M | 4.15 | 2 of 3 | 1 of 9
T58N G61I S107H | 0.72 | 3 of 3 | 1 of 9

The closing 5 entries, repeated:

changes	log10 Kd (nM), mean	detected	empty controls
F27H T58I V64Q	not detected	0 of 3	1 of 9
R56C S63H	2.23	3 of 3	0 of 9
T28W S31N K65N	2.66	3 of 3	0 of 9
T28I L29N D62M	4.15	2 of 3	1 of 9
T58N G61I S107H	0.72	3 of 3	1 of 9